{"sequences": {"note": "The chains behind the UniProt entries cited, without tags or fusion partners.", "UniProt P49146, whole entry": "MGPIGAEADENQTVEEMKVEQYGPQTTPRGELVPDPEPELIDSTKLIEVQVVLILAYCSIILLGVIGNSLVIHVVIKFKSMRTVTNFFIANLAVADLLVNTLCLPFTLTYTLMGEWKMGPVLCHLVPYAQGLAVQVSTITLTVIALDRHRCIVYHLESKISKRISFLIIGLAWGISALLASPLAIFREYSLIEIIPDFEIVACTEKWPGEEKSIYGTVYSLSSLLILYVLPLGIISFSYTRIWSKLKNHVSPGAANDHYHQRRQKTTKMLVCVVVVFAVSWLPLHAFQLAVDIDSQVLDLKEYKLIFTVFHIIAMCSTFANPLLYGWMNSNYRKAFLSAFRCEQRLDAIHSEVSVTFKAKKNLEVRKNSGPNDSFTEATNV"}, "source": "patent US8022035B2", "about": "“Y4 selective receptor agonists for therapeutic interventions” (7TM Pharma A/S, priority 2005, dated 2011)", "biological_target": "T1, human Y2 receptor (Homo sapiens, UniProt P49146)", "T1 construct": "expressed in transfected cells; host or cells: COS-7 cells, transient transfection, co-transfected with Gqi5", "assay": "Human Y2 receptor potency assay (inositol phosphate turnover)", "format": "cell-based", "protocol": "Potency of the test compounds on the human Y2 receptor is determined by performing dose-response experiments in COS-7 cells transiently transfected with the human Y2 receptor as well as a promiscuous G protein, Gqi5 which ensures that the Y2 receptor couples through a Gq pathway leading to an increase in inositol phosphate turnover. […] After stimulation with various concentrations of peptide for 45 min at 37 C, cells are extracted with 10% ice-cold perchloric acid followed by incubation on ice for 30 min. […] Determinations are made in duplicates.", "data": [{"smiles": "CCCC[C@H](NC(=O)[C@H](CCC(N)=O)NC(=O)[C@H](CCC(=O)O)NC(=O)[C@@H]1CCCN1C(=O)[C@@H](NC(=O)[C@H](C)NC(=O)[C@H](CC(N)=O)NC(=O)[C@H](CCC(=O)O)NC(=O)CNC(=O)[C@@H]1CCCN1C(=O)[C@H](Cc1ccc(O)cc1)NC(=O)[C@@H](NC(=O)[C@@H]1CCCN1C(=O)[C@H](CCC(=O)O)NC(=O)[C@H](CC(C)C)NC(=O)[C@@H]1CCCN1)C(C)C)[C@@H](C)O)C(=O)N[C@@H](C)C(=O)N[C@@H](CCC(N)=O)C(=O)N[C@@H](Cc1ccc(O)cc1)C(=O)N[C@@H](C)C(=O)N[C@@H](C)C(=O)N[C@@H](CC(=O)O)C(=O)N[C@@H](CC(C)C)C(=O)N[C@@H](CCCNC(=N)N)C(=O)N[C@@H](CCCNC(=N)N)C(=O)N[C@@H](Cc1ccc(O)cc1)C(=O)N[C@H](C(=O)N[C@@H](CC(N)=O)C(=O)N[C@@H](CCCC)C(=O)N[C@@H](CC(C)C)C(=O)N[C@H](C(=O)N[C@@H](CCCNC(=N)N)C(=O)N1CCC[C@H]1C(=O)N[C@@H](CCCNC(=N)N)C(=O)N[C@@H](Cc1ccc(O)cc1)C(N)=O)[C@@H](C)O)[C@@H](C)CC", "note": "[[Glu10,Nle17,Nle30]-PP(2-36), [Glu10,Nle17,Nle30]PP2-36]", "values": [{"measurement": "EC50", "value": "> 1000", "unit": "nM"}]}]}
